# Measurements reported in patent publication US5468854A, “Characterization of specific drug receptors with fluorescent ligands” (Pharmaceutical Discovery Corporation, priority 1993, dated 1995).
# Test system: benzodiazepine receptors
# Experiment: BD 623 fluorescence quenching/dequenching assay in brain membranes
# Assay type: binding, rat (Sprague-Dawley)
# Details: large excess of benzodiazepine receptor ligands (flurazepam 100 μM); non-benzodiazepine receptor ligands 10 μM
structure (smiles),measurement,value
CC(C)(N)Cc1ccccc1 [phenteramine],dequenching of BD 623 fluorescence,did not effect a dequenching of fluorescence
